ChEMBL document CHEMBL4304815, “Photoswitchable Inhibitor of the Calcium Channel TRPV6” (ACS Med Chem Lett, 2019)

Target: T1, Transient receptor potential cation channel subfamily V member 6 (Homo sapiens, UniProt Q9H1D0)
T1 sequence (Q9H1D0 whole entry): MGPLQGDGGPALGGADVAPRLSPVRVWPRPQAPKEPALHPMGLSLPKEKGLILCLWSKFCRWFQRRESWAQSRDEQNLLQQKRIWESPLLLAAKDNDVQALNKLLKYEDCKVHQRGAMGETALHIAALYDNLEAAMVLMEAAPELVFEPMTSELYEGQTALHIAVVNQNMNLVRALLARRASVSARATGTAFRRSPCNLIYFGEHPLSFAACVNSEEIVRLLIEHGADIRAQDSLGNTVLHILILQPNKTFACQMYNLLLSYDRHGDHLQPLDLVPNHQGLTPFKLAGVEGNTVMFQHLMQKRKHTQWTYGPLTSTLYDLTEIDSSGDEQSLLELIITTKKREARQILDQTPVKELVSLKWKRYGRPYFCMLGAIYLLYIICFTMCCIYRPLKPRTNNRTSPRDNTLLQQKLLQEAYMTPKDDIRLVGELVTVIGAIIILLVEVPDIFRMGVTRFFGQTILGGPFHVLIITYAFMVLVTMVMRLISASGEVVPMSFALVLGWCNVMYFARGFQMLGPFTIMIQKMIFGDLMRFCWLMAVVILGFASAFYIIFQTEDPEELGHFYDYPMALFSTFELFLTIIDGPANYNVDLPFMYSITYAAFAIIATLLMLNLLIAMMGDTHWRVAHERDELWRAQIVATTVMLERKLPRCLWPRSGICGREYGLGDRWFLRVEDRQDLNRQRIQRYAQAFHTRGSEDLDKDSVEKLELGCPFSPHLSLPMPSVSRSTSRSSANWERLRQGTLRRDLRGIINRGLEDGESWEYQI
Assay: Inhibition of human TRPV6 expressed in HEK293 cells assessed as reduction of Cd2+ influx preincubated for 5 mins followed by CdCl2 addition by calcium-5 fluorescence dye-based FLIPR assay
Type: cell-based

c1ccc([C@H]2CC[C@@H](N3CCN(Cc4cccnc4)CC3)CC2)cc1
IC50: 1700 nM
